# This is a selection; strong and weak results do not stand in their true shares. Calls of active or inactive are those of the source.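 Rule for the calls: active = inhibition at or above 50% relative to wild type and mutant plate controls; inactive = inhibition below 50%.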
# Experiment: loss of swimming-algae plug formation – whole organism, Chlamydomonas reinhardtii, WT vs cilia-less mutant, absorbance, 96-well, primary screen (AID 463189);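 note: 0% = wild type cc124 cells in DMSO and 100% = ciliumless bld1 mutant cells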
# Conditions: Chlamydomonas reinhardtii gravitaxis, OD600 absorbance, 2 days; at 10 µM; stronger effect = higher value
row,SMILES,inhibition
1,CCN(CC)CC(O)COC(=O)C(O)(c1ccccc1)C1CCCCC1 (configuration not stated),inactive: 3.15%
2,N#[O+].[C-]#N.[C-]#N.[C-]#N.[C-]#N.[C-]#N.[Fe+2].[Na+].[Na+],inactive: 7.22%

# — PubChem BioAssay AID463189 (University of Pittsburgh Molecular Library Screening Center, 2010)
